Reference: ChEMBL document CHEMBL5042486, “Discovery and Preclinical Characterization of BIIB091, a Reversible, Selective BTK Inhibitor for the Treatment of Multiple Sclerosis” (J Med Chem, 2022)

Assay: Clearance in Sprague-Dawley rat assessed as hepatic blood flow at 1 mg/kg, iv
Assay type: ADME, organism-based, Liver
Conditions: in vivo

- QH: 6%
SMILES: Cc1cc(-c2ccnc(Nc3cnn(C)c3)n2)ccc1CNC(=O)N1CC(OC(C)C)C1
